Source: patent US20190083638A1, “NICLOSAMIDE-CONJUGATED POLYPEPTIDE NANOPARTICLES” (priority 2017, published 2019)

Conditions: mouse, in vivo, iv
Method: Blood samples were obtained 0.5 h prior to dosing and at 0.08, 0.17, 0.33, 0.67, 1.5, 4, 8, 12, 24 hours after drug administration (n=4 per time point).
Blood samples were obtained at 0.5 h prior to the dosing and at 0.08, 0.17, 0.33, 0.67, 1.5, 4, 8, 12, and 24 h after drug administration.

O=C(Nc1ccc([N+](=O)[O-])cc1Cl)c1cc(Cl)ccc1O [NIC, Niclosamide]
CL (clearance = dose/AUC-inf): 0.89 ± 0.45 L/h (per kg BW)
